# Experimental data as given in patent US20020022052A1, “Transdermal delivery system” (priority 2000, published 2002).
# Assay: Maximum achieved massage induced skin load (400 g vibrator, 10 minutes)
# Conditions: particle size 0.4 um 20%, 0.3 um 40%, 0.2 um 20%, <0.1 um 20%
substance,measurement,setting,value
zinc gluconate,Maximum loading,carrier Eutanol G,2.3 micrograms/cm^2
same,Maximum loading,carrier Nil (dry powder),1.4 mg/cm^2
